The list shows a part of the results, in another mix than the full data. The source made the active and inactive calls. Rule as the data show it: active = inhibition above about 34% (passing the limit was not always enough); inactive = the rest.
The molecules below were run against Serine/threonine-protein kinase PLK1 (Homo sapiens) (UniProt P53350) (assay: blockers of phosphopeptide binding to Plk1 PBD – biochemical, fluorescence polarization, primary screen (AID 693)). Conditions: active compounds read high,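 tested at about 20 µM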.

By UniProt entry, the sequences of proteins in these tests, tags left out.
UniProt P53350, whole entry: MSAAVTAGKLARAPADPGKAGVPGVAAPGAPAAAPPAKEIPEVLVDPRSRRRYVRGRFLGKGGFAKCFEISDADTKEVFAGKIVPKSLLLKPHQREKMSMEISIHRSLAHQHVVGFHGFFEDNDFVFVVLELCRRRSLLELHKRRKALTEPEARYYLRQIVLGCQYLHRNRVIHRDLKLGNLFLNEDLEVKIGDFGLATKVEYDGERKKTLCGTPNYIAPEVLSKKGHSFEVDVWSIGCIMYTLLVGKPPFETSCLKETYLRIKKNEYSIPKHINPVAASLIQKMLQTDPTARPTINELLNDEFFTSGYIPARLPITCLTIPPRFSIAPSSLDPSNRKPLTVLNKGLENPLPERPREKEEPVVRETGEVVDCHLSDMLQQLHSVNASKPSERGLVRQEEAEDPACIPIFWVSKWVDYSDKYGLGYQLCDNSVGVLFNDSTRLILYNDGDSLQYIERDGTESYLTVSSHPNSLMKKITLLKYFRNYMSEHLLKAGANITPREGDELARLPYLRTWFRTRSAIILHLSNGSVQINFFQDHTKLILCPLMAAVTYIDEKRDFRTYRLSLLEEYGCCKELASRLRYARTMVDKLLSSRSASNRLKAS

Row | SMILES | inhibition
1 | COc1ccccc1OP(C)(=O)Nc1ccc(C)c(C)c1 (centres undefined) | inactive: 1.75%
2 | Cc1nc2ccc3ccccc3c2o1.O=[N+]([O-])c1cc([N+](=O)[O-])c(O)c([N+](=O)[O-])c1 | inactive: 2.24%
3 | COc1ccc(OP(C)(=O)Nc2ccccn2)cc1 (centres undefined) | inactive: 4.79%
4 | CN(C)CCOC(=O)C(O)(c1ccccc1)C1CCCC1 (centres undefined) | inactive: -6.36%
5 | COc1ccccc1OP(C)(=O)Nc1ccc(C)cc1C (centres undefined) | inactive: -22%
6 | CP(=O)(Nc1ccccn1)Oc1ccccc1 (centres undefined) | inactive: 34.4%
7 | Cc1c(NP(C)(=O)Oc2ccc(C(C)C)cc2)c(=O)n(-c2ccccc2)n1C (centres undefined) | inactive: -3.88%
8 | COc1ccccc1OP(C)(=O)Nc1c(C)n(C)n(-c2ccccc2)c1=O (centres undefined) | inactive: 0.00446%
9 | CP(=O)(Oc1ccccc1)N1CCOC1=O (centres undefined) | inactive: 3%
10 | CCN(CC)CC(O)COC(=O)C(O)(c1ccccc1)C1CCCCC1 (centres undefined) | inactive: 13.3%
11 | CC(C)(C)c1ccc(OP(C)(=O)O)cc1 | inactive: 17.1%
12 | CP(=O)(Nc1ccc(Cl)cc1)Oc1ccc(F)cc1 (centres undefined) | inactive: -1.01%
13 | CP(=O)(OC12CC3CC(CC(C3)C1)C2)OC12CC3CC(CC(C3)C1)C2 | inactive: 20.3%
14 | CN(C)CCOC(=O)C(O)(c1ccccc1)C1CCCCC1 (centres undefined) | inactive: 1.01%
15 | COc1ccc(OP(C)(=O)Nc2cccc(Br)c2)cc1 (centres undefined) | inactive: -30.6%
16 | CCOP(C)(=S)SCC(=O)NC(C)(CC)C(=O)O (centres undefined) | inactive: 2.07%
17 | CP(=O)(Nc1ccc2c(c1)OCCO2)Oc1ccccc1 (centres undefined) | inactive: 23%
18 | CP(=O)(Nc1ccccc1F)Oc1ccccc1 (centres undefined) | inactive: 7.89%
19 | CP(=O)(Nc1ccccc1)Oc1ccc(F)cc1 (centres undefined) | inactive: -4.19%
20 | CCN(CC)CCCOC(=O)C(O)(c1ccccc1)C1CCCCC1 (centres undefined) | inactive: -10.8%
21 | Cc1cc(C)cc(OP(C)(=O)Nc2ccc(C)cc2C)c1 (centres undefined) | inactive: 0.74%
22 | Cc1ccc(C)c(NP(C)(=O)Oc2ccccc2)c1 (centres undefined) | inactive: 7.76%
23 | Cc1cc(C)cc(OP(C)(=O)Nc2ccccn2)c1 (centres undefined) | inactive: -9.01%
24 | Cc1nc2ccc3ccccc3c2s1.O=[N+]([O-])c1cc([N+](=O)[O-])c(O)c([N+](=O)[O-])c1 | inactive: 7.54%
25 | COc1ccccc1OP(C)(=O)Nc1c(C)cccc1C (centres undefined) | inactive: -5.92%
26 | CP(=S)(Nn1cnnc1)Oc1ccccc1 (centres undefined) | inactive: 16.4%
27 | CP(=O)(NC(=O)Nc1ccccc1)Oc1ccccc1 (centres undefined) | inactive: -6.21%
28 | CP(=O)(Nc1ccccn1)Oc1ccc(Cl)cc1 (centres undefined) | inactive: -0.27%
29 | COc1ccc(OP(C)(=O)Nc2cccc(F)c2)cc1 (centres undefined) | inactive: 0.5%

— PubChem BioAssay AID693 (University of Pittsburgh Molecular Library Screening Center, 2007)
